Measurements: ChEMBL document CHEMBL5126609, “Design, Synthesis, and Pharmacological Evaluation of Benzimidazolo-thiazoles as Potent CXCR3 Antagonists with Therapeutic Potential in Autoimmune Diseases: Discovery of ACT-672125” (J Med Chem, 2022)

Sequences of proteins named here, by UniProt entry; tags and fusion partners are left off. A change or cut given only in a name is not applied to a line headed by its entry.
UniProt P41597: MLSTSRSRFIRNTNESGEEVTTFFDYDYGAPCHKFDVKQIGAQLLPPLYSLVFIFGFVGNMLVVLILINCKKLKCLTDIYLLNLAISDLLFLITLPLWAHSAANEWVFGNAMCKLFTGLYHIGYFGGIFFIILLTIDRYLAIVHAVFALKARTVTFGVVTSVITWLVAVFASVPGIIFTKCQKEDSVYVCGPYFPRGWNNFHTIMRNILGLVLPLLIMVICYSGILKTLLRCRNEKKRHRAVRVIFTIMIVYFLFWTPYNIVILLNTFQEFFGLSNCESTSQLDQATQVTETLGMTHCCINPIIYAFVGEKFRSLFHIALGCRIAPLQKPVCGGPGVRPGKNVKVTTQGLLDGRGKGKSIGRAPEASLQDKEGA
UniProt P61073, whole entry: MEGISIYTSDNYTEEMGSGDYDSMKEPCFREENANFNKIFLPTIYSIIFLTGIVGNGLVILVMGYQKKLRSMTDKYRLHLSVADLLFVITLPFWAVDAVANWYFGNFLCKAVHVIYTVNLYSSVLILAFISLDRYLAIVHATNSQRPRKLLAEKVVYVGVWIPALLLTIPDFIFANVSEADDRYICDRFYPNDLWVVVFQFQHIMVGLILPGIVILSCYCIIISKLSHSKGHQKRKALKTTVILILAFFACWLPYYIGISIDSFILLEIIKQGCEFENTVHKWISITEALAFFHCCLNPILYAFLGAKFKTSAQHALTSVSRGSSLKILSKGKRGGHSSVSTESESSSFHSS
UniProt P25106: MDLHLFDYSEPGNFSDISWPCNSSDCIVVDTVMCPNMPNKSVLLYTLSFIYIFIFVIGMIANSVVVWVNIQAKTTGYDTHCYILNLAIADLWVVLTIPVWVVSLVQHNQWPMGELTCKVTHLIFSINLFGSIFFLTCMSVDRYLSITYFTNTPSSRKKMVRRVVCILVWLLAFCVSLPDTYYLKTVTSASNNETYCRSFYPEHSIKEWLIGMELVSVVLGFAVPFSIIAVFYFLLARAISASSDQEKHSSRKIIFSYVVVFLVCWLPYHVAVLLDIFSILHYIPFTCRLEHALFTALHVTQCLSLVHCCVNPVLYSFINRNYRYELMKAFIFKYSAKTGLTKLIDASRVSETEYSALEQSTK

Columns and labels:
[1] = target: T1, C-C chemokine receptor type 1 (Homo sapiens) (UniProt P32246); experiment: Inhibition of CCR1 (unknown origin) at 10 uM relative to control
T1 sequence (whole entry): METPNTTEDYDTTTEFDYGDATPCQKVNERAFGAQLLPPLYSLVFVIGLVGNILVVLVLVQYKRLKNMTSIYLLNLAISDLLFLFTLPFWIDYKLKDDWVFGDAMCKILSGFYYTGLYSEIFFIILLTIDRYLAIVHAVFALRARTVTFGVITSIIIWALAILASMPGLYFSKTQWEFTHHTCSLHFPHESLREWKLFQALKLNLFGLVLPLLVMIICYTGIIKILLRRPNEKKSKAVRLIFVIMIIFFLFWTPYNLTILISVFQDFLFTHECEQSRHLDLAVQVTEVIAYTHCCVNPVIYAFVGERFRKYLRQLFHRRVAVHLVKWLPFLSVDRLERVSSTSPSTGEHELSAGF

[2] = target: C-C chemokine receptor type 2 (Homo sapiens) (UniProt P41597); experiment: Inhibition of CCR2 (unknown origin) at 10 uM relative to control
[3] = target: T2, C-C chemokine receptor type 3 (Homo sapiens) (UniProt P51677); experiment: Inhibition of CCR3 (unknown origin) at 10 uM relative to control
T2 sequence (whole entry): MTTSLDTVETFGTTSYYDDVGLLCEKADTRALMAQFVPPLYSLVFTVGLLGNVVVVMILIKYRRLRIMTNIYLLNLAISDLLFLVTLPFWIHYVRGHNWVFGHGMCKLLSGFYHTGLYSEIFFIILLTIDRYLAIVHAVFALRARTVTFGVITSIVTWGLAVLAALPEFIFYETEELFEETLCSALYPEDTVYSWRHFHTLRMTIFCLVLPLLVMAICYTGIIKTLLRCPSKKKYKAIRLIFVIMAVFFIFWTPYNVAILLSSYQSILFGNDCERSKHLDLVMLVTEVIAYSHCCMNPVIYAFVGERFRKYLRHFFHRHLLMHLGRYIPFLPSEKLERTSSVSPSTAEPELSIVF

[4] = target: T3, C-C chemokine receptor type 6 (Homo sapiens) (UniProt P51684); experiment: Inhibition of CCR6 (unknown origin) at 10 uM relative to control
T3 sequence (whole entry): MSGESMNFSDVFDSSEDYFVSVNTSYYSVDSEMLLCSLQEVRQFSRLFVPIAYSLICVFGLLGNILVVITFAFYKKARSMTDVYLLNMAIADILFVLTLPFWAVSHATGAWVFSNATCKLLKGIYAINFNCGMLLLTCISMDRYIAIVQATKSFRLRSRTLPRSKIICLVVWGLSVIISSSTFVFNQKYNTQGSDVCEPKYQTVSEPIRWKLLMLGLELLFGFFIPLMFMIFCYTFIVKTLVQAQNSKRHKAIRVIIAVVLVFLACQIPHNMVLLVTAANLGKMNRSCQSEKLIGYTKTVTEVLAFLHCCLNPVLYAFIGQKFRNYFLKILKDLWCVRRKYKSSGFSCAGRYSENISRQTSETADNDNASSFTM

[5] = target: C-X-C chemokine receptor type 4 (Homo sapiens) (UniProt P61073); experiment: Inhibition of CXCR4 (unknown origin) at 10 uM relative to control
[6] = target: T4, C-X-C chemokine receptor type 5 (Homo sapiens) (UniProt P32302); experiment: Inhibition of CXCR5 (unknown origin) at 10 uM relative to control
T4 sequence (whole entry): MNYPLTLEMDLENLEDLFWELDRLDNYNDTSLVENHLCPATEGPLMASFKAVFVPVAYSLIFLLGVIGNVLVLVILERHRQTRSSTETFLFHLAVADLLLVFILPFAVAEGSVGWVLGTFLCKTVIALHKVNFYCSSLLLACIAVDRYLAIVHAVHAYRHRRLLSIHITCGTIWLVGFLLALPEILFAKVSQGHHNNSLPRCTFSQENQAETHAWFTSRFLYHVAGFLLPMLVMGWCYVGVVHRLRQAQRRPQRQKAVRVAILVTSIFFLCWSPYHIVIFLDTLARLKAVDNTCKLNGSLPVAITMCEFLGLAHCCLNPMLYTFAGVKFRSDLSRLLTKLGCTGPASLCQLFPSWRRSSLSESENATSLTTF

[7] = target: Atypical chemokine receptor 3 (Homo sapiens) (UniProt P25106); experiment: Inhibition of CXCR7 (unknown origin) at 10 uM relative to control

Measured: inhibition

Cc1nc(C)n(CC(=O)N2CCN(c3sc(C(F)(F)F)nc3-c3nc4ccc(-c5noc(C)n5)cc4[nH]3)C[C@H]2C)n1
< 50%: all assays above
